# Test results taken from paper PMC3131678, “In vitro inhibition of porcine cytochrome P450 by 17β -estradiol and 17α-estradiol” (Interdisciplinary Toxicology, 2011).
# Chains of the proteins cited; added tags and fusions are not shown. Lines headed by an entry give the natural chain unless they say otherwise; changes in a name come on top. Residues count along the entry.
# UniProt F1SJ26, 1-516: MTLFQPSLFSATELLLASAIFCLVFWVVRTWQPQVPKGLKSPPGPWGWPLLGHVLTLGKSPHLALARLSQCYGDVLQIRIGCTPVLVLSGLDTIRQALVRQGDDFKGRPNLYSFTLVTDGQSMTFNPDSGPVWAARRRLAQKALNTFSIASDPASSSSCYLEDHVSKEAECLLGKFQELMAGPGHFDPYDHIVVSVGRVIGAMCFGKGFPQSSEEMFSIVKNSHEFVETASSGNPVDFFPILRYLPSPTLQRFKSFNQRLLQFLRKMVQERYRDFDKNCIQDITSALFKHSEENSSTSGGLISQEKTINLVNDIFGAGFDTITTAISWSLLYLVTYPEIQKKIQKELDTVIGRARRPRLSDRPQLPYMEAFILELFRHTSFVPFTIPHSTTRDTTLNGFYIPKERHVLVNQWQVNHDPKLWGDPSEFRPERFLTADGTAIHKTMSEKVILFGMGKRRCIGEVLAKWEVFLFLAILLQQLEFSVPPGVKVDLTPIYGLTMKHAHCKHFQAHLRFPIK
# UniProt P79383: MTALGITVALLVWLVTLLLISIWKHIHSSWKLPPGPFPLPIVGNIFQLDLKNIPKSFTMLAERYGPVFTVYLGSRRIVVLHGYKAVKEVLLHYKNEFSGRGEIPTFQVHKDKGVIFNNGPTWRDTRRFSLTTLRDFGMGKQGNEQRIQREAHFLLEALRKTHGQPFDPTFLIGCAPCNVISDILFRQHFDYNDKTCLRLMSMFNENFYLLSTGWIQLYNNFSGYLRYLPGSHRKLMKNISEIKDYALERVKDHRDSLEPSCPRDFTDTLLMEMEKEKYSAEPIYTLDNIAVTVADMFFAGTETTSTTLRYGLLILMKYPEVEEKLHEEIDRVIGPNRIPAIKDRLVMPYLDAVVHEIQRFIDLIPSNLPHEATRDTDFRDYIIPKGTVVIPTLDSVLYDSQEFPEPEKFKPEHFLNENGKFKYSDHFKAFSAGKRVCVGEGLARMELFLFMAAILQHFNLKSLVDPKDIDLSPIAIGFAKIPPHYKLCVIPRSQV
# Legend:
# [1] = molecular target: CYP1A2 (Sus scrofa, UniProt F1SJ26); details: MROD; CI 95% confidence interval
# Protocol: (§1) All procedures were done on ice.
# (§2) All steroids were dissolved in methanol. […] Kinetic studies were performed under linear conditions.
# [2] = molecular target: CYP2E1 (Sus scrofa, UniProt P79383); assay: Enzyme kinetic analysis of PNPH (4-nitrocatechol formation from p-nitrophenol) in porcine hepatic microsomes; details: CI 95% confidence interval
# Protocol: as §1, §2
"Vmax, pmol/min/mg (CI) [1]",Compound,"Vmax, pmol/min/mg (CI) [2]"
7.1 (6.58–7.61) pmol/min/mg,"COc1ccc2nc3ccc(=O)cc-3oc2c1 [7-methoxy-resorufin, 7-methoxyresorufin]",–
–,O=[N+]([O-])c1ccc(O)cc1 [p-nitrophenol],134.0 (118.3–149.7) pmol/min/mg
